Results as given in US9248109B2, “High penetration prodrug compositions of peptides and peptide-related compounds” (priority 2009, dated 2016).

Experiments:
[1] = Conversion of HPPs/HPCs to parent drugs: incubation with whole blood, hydrolysis products by HPLC; type: in vitro ADME, human; conditions: 20 mg in 1 mL whole blood, 30 min, 37° C.
Procedure: Peptide HPPs/HPCs converted to the parent peptides or peptide-related compounds quickly in good yield in human plasma.
A peptide HPP/HPC (20 mg) was incubated with whole blood (1 mL) for 30 min at 37° C. and analyzed by HPLC.

[2] = In vitro penetration rate across isolated human skin in modified Franz cells (HPLC); conditions: for In vitro Penetration Rate (apparent flux), HPP/HPC: 2 mL, Franz cells, HPP/HPC column; for In vitro Penetration Rate (apparent flux), HPP/HPC / In vitro Penetration Rate (apparent flux), Parent compound: 20% in 0.2 M phosphate buffer pH 7.4, isolated human skin; for In vitro Penetration Rate (apparent flux), Parent compound: parent compound column, lowest detectable flux 1 μg/cm^2/h; for apparent flux value: parent drugs, at lowest detectable value, considered not detectable

Substance: Ac-Tyr(Ac)-Gly-Gly-Phe-Met-OCH2CH2N(CH2CH3)2.HCl
- Hydrolysis products: Amount of Ac-Tyr-Gly-Gly-Phe-Met-OCH2CH2N(CH2CH3)2•HCl [1]: 2%
- Hydrolysis products: Amount of Ac-Tyr-Gly-Gly-Phe-Met-OH [1]: 8%
- Hydrolysis products: Amount of Parent drug [1]: 60%
- Hydrolysis products: Amount of Peptide HPP/HPC [1]: 3%
- Hydrolysis products: Amount of other side products (amino acids, dipeptides, tripeptides, tetrapeptides) [1]: 27%
- In vitro Penetration Rate (apparent flux), HPP/HPC [2]: 0.52 mg/cm^2/h

Substance: Ac-Val-Pro-Gly-Pro-Arg(diAc)-OCH2CH2N(CH2CH3)2.HCl
- In vitro Penetration Rate (apparent flux), HPP/HPC [2]: 0.60 mg/cm^2/h

Substance: H-Val-Pro-Gly-Pro-Arg-OH
- In vitro Penetration Rate (apparent flux), Parent compound [2]: 0.001 mg/cm^2/h
- apparent flux value [2]: 1 μg/cm^2/h

Substance: cyclo(1,6)-Ac-Nle-Asp-His-Phe-Arg(diAc)-Trp-Lys-OCH2CH2N(CH2CH3)2.HCl
- Hydrolysis products: Amount of Parent drug [1]: 45%
- Hydrolysis products: Amount of Peptide HPP/HPC [1]: 4%
- Hydrolysis products: Amount of cyclo(1,6)-Ac-Nle-Asp-His-Phe-Arg(Ac)-Trp-Lys-OCH2CH2N(CH2CH3)2•HCl [1]: 8%
- Hydrolysis products: Amount of cyclo(1,6)-Nle-Asp-His-Phe-Arg-Trp-Lys-OH [1]: 10%
- Hydrolysis products: Amount of other side products (amino acids, dipeptides, tripeptides, tetrapeptides) [1]: 33%
- In vitro Penetration Rate (apparent flux), HPP/HPC [2]: 0.46 mg/cm^2/h

Substance: cyclo(1,6)-Ac-Nle-Asp-His-Phe-Arg-Trp-Lys-OH
- In vitro Penetration Rate (apparent flux), Parent compound [2]: 0.001 mg/cm^2/h
- apparent flux value [2]: 1 μg/cm^2/h

Substance: HCl.(CH3)2NCH2CH2CH2CO-Tyr(Ac)-Gly-Gly-Phe-Met-OCH2CH2CH2CH3
- Hydrolysis products: Amount of (CH3)2NCH2CH2CH2CO-Tyr-Gly-Gly-Phe-Met-OCH2CH2CH2CH3 [1]: 6%
- Hydrolysis products: Amount of (CH3)2NCH2CH2CH2CO-Tyr-Gly-Gly-Phe-Met-OH [1]: 10%
- Hydrolysis products: Amount of Parent drug [1]: 55%
- Hydrolysis products: Amount of Peptide HPP/HPC [1]: 5%
- Hydrolysis products: Amount of other side products (amino acids, dipeptides, tripeptides, tetrapeptides) [1]: 24%
- In vitro Penetration Rate (apparent flux), HPP/HPC [2]: 0.55 mg/cm^2/h

Substance: cyclo(1,6)-H-Nle-Asp-His-D-Phe(4-I)-Arg(Ac)-Trp-Lys-NH2.HCl
- In vitro Penetration Rate (apparent flux), HPP/HPC [2]: 0.34 mg/cm^2/h

Substance: Ac-Tyr-Gly-Gly-Phe-Met-OH
- In vitro Penetration Rate (apparent flux), Parent compound [2]: 0.001 mg/cm^2/h

Substance: cyclo(1,6)-H-Nle-Asp-His-D-Ala(2-naphthyl)-Arg(NO2)-Trp-Lys-NH2.HCl
- In vitro Penetration Rate (apparent flux), HPP/HPC [2]: 0.50 mg/cm^2/h

Substance: cyclo(1,6)-Ac-Nle-Asp-His-D-Phe(4-I)-Arg-Trp-Lys-NH2
- In vitro Penetration Rate (apparent flux), Parent compound [2]: 0.001 mg/cm^2/h
